Measurements as given in US6476187B1, “Methods and reagents for discovering and using mammalian melanocortin receptor agonists and antagonists to modulate feeding behavior in animals” (Oregon Health & Sciences University, priority 1992, dated 2002).

By UniProt entry, the sequences of proteins in these tests, tags left out. Where a name states a change or a piece, a line headed by the entry shows the natural chain unless it says otherwise.
UniProt P32245, whole entry: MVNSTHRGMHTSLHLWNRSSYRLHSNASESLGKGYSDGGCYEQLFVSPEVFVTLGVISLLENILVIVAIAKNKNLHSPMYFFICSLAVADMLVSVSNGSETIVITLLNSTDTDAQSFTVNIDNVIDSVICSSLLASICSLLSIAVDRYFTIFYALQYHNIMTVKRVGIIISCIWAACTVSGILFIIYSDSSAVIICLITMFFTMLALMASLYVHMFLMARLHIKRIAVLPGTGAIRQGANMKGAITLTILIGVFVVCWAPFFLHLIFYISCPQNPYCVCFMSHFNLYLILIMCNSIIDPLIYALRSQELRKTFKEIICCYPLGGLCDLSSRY
UniProt P32244: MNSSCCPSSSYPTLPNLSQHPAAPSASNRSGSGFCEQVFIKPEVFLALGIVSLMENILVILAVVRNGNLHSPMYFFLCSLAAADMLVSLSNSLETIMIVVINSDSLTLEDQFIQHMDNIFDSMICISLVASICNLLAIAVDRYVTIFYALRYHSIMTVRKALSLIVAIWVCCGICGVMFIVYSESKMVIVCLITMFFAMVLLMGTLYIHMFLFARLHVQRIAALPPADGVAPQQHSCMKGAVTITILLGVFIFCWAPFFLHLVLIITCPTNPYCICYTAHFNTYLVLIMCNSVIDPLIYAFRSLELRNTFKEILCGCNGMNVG
UniProt P41149: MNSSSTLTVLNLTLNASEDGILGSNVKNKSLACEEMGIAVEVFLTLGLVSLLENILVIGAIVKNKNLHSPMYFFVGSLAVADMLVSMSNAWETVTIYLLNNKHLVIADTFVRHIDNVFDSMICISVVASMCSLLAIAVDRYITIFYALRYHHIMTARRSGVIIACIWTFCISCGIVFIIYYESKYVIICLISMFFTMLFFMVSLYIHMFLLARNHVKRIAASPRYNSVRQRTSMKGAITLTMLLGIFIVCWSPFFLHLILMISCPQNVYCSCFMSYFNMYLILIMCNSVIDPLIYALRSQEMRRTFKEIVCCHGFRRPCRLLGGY

Columns and labels:
Assay type in all cases: cell-based
[1] = target: T1, human melanocortin-4 receptor (Homo sapiens, UniProt P32245); experiment: adenylate cyclase activity in 293 cells expressing MC-4 receptor
T1 construct: The MC-4 receptor was cloned in a 1.9 kb HindIII genomic DNA fragment; expressed in transfected cells; host or cells: human 293 cells, pcDNAI/Neo, G418-selected

[2] = target: T2, rat MC3-R (Rattus norvegicus, UniProt P32244); experiment: intracellular cAMP production in 293 cells expressing MC3-R; conditions: 1 h at 37° C.
T2 construct: The entire coding region of the MC-3 receptor cDNA insert; expressed in transfected cells; host or cells: human 293 cells, pcDNA/neo I, G418-selected
Description: cAMP production assays as described above were also used to analyze expression of MC3-R in cells transfected with the expression vectors described herein as follows. Cells (˜5×10^6) were plated in 6-well dishes, washed once with DMEM containing 1% bovine serum albumin (BSA) and 0.5 mM IBMX (a phosphodiesterase inhibitor), then incubated for 1 h at 37° C. with varying concentrations of the melanotropic peptides αMSH, γ3MSH, γMSH, the MSH peptide analogues Nle^4-D-Phe^7-αMSH (NDP-MSH), ACTH4-10 and ACTH1-39. Following hormone treatment, the cells were washed twice with phosphate buffered saline and intracellular cAMP extracted by lysing the cells with 1 mL of 60% ethanol. Intracellular cAMP concentrations were determined using an assay which measures the ability of cAMP to displace [8-^3H] cAMP from a high affinity cAMP binding protein (see Gilman, 1979, Proc. Natl. Acad. Sci. USA 67: 305-312).
The abscissa indicates the concentration of each hormone and the ordinate indicates the percentage of basal intracellular cAMP concentration achieved by each treatment. […] None of the peptides tested induced any change in intracellular cAMP in cells containing the vector alone. Cells expressing rat MC3-R responded strongly to every melanotropic peptide containing the MSH code sequence His-Phe-Arg-Trp, with up to a 60-fold elevation of intracellular cAMP levels.

[3] = target: T3, mouse MC-5 melanocortin receptor (Mus musculus, UniProt P41149); experiment: adenylate cyclase / cAMP-dependent β-galactosidase assay in 293 cells expressing MC-5 receptor; conditions: MC-5 receptor agonists
T3 construct: expressed in transfected cells; host or cells: human 293 cells, pcDNA/neo, G418-selected
Description: A 1.6 kb ApaI-HindIII fragment comprising the entire coding sequence of the mouse MC-5 melanocortin receptor disclosed in Example 2G above was cloned into the pcDNA/neo expression vector (Invitrogen) after PCR amplification of the lambda phage clone. This plasmid was stably introduced into human 293 cells by calcium phosphate co-precipitation using standard techniques, and plasmid-containing cells selected in G418 containing media. Specificity of receptor-hormone binding was assayed using adenylate cylcase activity as described above.
α-MSH>PMSH>>γ-MSH The results of adenylate cyclase activity assays (AC) and cAMP-dependent β-galactosidase (β-gal) assay are shown in FIG. 13.

| Substance | EC50 [1] | EC50 [2] | EC50 [3] |
| --- | --- | --- | --- |
| ACTH4-10 | > 100 nM | 100 nM | – |
| desacetyl-αMSH | – | 8 nM | – |
| α-melanocyte stimulating hormone [α-MSH] | – | – | 1.7 nM |
| γ2-MSH | – | 3 nM | – |
